Ab-95 light chain CDR variants: yeast mating affinities

The measurements come from Engelhart et al. 2022 (doi:10.1038/s41597-022-01779-4) through the FLAb antibody collection.

The target is the same throughout: PDVDLGDISGINAS, from the HR2 region of SARS-CoV-2 spike.

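Phage display of a naive human antibody library on the peptide gave the parent. Library AAYL52 holds single substitutions and randomly drawn double and triple substitutions in the CDRs. Affinity was read by AlphaSeq, a pooled yeast mating assay with surface-displayed partners. Mating (16 h, 30 °C) was followed by selection of diploids and sequencing of their barcodes. Scores were corrected for input abundance and mapped to Kd with protein pairs of known affinity run in the same pool. The assay was run in three technical replicates.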

The variants keep the heavy chain, the linker and the frameworks of Ab-95 (scFv order VH, a 15-residue (Gly4Ser)3 linker, VL).
VH: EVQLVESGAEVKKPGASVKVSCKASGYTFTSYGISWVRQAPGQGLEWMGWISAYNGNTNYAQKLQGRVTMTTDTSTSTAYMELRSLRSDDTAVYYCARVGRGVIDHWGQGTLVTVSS
VL: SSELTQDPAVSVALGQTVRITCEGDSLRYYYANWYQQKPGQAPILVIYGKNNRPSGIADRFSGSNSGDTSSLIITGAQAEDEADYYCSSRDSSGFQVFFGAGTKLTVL

Changes read parent residue, position, new residue, counted from the first residue of the VL shown.
This list gathers variants with a substitution at S55 (VL, numbered from residue 1).
Values are log10 of the apparent Kd in nM; lower means stronger binding.
Where no diploid with the target was found in that replicate, the entry reads "ND": below detection, most likely a poor binder, though not proof of it.
Nonspecific signal, from three strains lacking the peptide, appeared in 28% of pairings of library AAYL52, centred on 3.91 (5% of these signals below 2.90); values are not corrected for it.
For reference, the parent read 2.31 as the reference entry and 2.25 as a member of this library.

For N51Y/S55G/V97A, the assay gave 4.07, ND, ND. Variant S26Y/Y30P/S55D gave 2.90, 2.53, 2.51. Variant S55C/R90K/G94P showed 3.09, 3.44, 2.35. With L27F/S55R/D91Y the result was 4.60, 3.52, ND. For K50C/N52C/S55K, the assay gave 3.89, ND, 4.15. For S55E/Q96R/V97F, the assay gave ND, 3.27, 2.66. With S55V/F98P the result was 2.32, 2.37, 1.79.

Variant L27S/S55E/Q96W showed ND, 3.28, ND. Variant G24I/S55L/F98I gave ND, 5.28, ND. Variant Y29R/A32L/S55K gave ND, ND, ND. Variant S55F gave 2.99, 2.33, 2.53. With G49E/S55M the result was 3.55, 3.45, 2.72. With D25V/S55M/S89F the result was 3.02, 5.17, 4.44. With S26M/S55V/S93R the result was 4.06, ND, ND.

Variant S55E/S88P/S92E gave 4.41, 1.99, 2.45. Variant G24V/P54V/S55K gave 3.29, 3.87, 3.39. For S55L/S89G, the assay gave 2.06, 2.36, 1.82. With S26T/L27S/S55L the result was 4.29, 3.61, 4.03. Variant P54A/S55N/F95N showed 2.73, 3.01, 2.16. With S55H/S89M/R90T the result was ND, 4.60, ND.

The 3 strongest on average among those seen in every replicate, once more:

changes	replicates, log10 nM
S55L/S89G	2.06, 2.36, 1.82
S55V/F98P	2.32, 2.37, 1.79
S55F	2.99, 2.33, 2.53